Experimental data taken from ChEMBL document CHEMBL4000164, “(+)-and (-)-Phenazocine enantiomers: Evaluation of their dual opioid agonist/σ1 antagonist properties and antinociceptive effects” (Eur J Med Chem, 2017).
pKi: −log10 of the molar value.

How the values were obtained:
[1] = biological target: T1, Sigma non-opioid intracellular receptor 1 (Cavia porcellus, UniProt Q60492); test: Displacement of [3H]-(+)-pentazocin from sigma1 receptor in guinea pig brain P2 membranes after 120 mins
[2] = biological target: T1, Sigma non-opioid intracellular receptor 1; test: Displacement of [3H]-PTZ from sigma1 receptor in guinea pig brain membranes after 150 mins in presence of DPH solvent by liquid scintillation counting method
[3] = biological target: T1, Sigma non-opioid intracellular receptor 1; test: Displacement of [3H]-PTZ from sigma1 receptor in guinea pig brain membranes after 150 mins in presence of 1 mM DPH by liquid scintillation counting method

C[C@@H]1[C@@H]2Cc3ccc(O)cc3[C@@]1(C)CCN2CCc1ccccc1
pKi [1]: 7.26
pKi [2]: 8.37
pKi [3]: 8.42

C[C@H]1[C@H]2Cc3ccc(O)cc3[C@]1(C)CCN2CCc1ccccc1
pKi [1]: 9.70
pKi [2]: 7.10
pKi [3]: 7.07
